Common to all, as to format: cell-based
The target of test [1] is URAT1 (Homo sapiens, UniProt Q96S37). Nature of the test: [14C]-urate uptake by URAT1-expressing Xenopus oocytes. An excerpt:
(§1) For uptake experiments, oocytes were washed four times with ND96 medium (pH 7.4) without pyruvate and gentamycin.

Sequences of proteins named here, by UniProt entry; tags and fusion partners are left off. A change or cut given only in a name is not applied to a line headed by its entry.
UniProt Q96S37: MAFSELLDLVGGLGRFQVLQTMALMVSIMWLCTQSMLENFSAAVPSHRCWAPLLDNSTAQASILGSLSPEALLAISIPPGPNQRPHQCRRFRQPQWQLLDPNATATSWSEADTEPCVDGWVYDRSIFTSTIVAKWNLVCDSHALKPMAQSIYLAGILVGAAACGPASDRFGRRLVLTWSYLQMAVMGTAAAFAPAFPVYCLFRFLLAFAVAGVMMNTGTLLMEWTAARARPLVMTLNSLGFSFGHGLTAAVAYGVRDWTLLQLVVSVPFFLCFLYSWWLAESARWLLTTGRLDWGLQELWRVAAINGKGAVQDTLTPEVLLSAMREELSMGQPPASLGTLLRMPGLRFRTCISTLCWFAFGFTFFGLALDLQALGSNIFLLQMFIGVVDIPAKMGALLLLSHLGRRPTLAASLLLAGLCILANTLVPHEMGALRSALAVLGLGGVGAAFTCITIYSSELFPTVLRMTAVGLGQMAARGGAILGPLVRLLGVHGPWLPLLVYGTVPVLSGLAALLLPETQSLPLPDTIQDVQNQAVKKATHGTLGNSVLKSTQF

Test [2] addresses T1, OAT3 (Mus musculus, UniProt O88909).
T1 sequence (O88909 1-537): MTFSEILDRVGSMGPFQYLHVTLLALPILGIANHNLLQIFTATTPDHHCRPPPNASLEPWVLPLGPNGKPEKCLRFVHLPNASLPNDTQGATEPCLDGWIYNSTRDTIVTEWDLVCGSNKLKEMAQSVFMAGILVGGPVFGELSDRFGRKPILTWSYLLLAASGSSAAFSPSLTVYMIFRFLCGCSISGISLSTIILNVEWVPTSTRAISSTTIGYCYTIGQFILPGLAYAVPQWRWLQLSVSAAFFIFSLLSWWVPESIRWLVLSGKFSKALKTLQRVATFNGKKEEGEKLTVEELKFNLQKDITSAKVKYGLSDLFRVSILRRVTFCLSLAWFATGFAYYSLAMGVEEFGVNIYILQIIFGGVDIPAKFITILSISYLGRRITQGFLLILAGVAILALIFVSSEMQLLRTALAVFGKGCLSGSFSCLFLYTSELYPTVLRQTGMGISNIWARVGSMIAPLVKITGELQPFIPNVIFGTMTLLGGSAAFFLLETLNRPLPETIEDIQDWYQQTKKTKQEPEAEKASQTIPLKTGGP
Description: [14C]-urate uptake by OAT3-expressing Xenopus oocytes. Here is the method: as §1
The uptake of [^14C]‐urate (40 μmol/L) was performed in ND96 medium (pH 7.4) at ~25°C for 1 h.

The target of test [3] is T2, OAT4 (Homo sapiens, UniProt Q9NSA0).
T2 sequence (Q9NSA0 1-550): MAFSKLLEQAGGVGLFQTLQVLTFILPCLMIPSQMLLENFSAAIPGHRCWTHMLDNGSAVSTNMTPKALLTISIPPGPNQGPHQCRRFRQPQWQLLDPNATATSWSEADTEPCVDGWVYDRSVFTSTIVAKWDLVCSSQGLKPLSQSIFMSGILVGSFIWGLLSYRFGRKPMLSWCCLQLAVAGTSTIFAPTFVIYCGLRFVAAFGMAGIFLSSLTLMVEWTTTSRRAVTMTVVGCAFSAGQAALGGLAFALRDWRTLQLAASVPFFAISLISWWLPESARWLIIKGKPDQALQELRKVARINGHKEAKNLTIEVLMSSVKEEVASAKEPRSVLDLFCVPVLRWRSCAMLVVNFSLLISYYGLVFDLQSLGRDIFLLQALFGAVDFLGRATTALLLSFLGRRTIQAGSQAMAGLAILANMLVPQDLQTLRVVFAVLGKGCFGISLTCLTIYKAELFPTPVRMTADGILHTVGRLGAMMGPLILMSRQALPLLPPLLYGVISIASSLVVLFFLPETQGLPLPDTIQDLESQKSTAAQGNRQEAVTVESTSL
Description: [14C]-urate uptake by OAT4-expressing Xenopus oocytes. As for the experimental part: as §1
(A) The uptake of [^14C]‐urate by OAT4‐expressing oocytes was performed in ND96 medium (pH 7.4) at ~25°C for 1 h. Na^+‐dependence was examined by replacing extracellular NaCl by KCl. […] (B) The inhibition of [^14C]‐urate uptake by OAT4 was examined in the presence of extracellular organic anions (for cis‐inhibition) or uricosuric drugs at the indicated concentrations. […] Data are mean ± S.E. with n = 12–15.

For the substance α‐ketoglutarate [α‐KG], the “cis-inhibition of URAT1-mediated urate uptake by extracellular organic anion” value in test [1] is “not cis‐inhibited”. Moreover, the “Effect of preloaded intracellular anion on OAT3 [14C]-urate uptake (trans-stimulation)” value in test [2] is “not trans‐stimulated”. For the same substance, in test [3] (10 mM extracellular anion), the “cis-inhibition of OAT4-mediated, maleate trans-stimulated urate uptake” value was “much less cis‐inhibition”. The “trans-stimulatory effect of preloaded anion on OAT4-mediated urate uptake” value in test [3] (preinjected 50 nL of 100 mmol/L) was “no significant effects”.
